Tested on: Mastocytoma (P815) tumor cells
Assay: In vivo potentiation of cytotoxic lymphocytes activity against mastocytoma tumor cells
Set-up: species or system mouse
Details: for % Cytotoxicity: DBA/2 mice, compound 7 2 mg/mouse, interleukin-2 50 U per mouse
Method: ^a Ten mice in each group were inoculated with 2 × 10^6
tumor cells. After 5 hours, saline or nucleoside compound 7 solution (2
mg/mouse) was administered to each mouse. On days 3,5,7 or 9, spleen cell
were isolated and their cytotoxicity was determined against P815 tumor
cells as described in Gonzales and Sharma.
Compound 7 was tested to determine whether or not it can increase cytotoxic lymphocytes response against mastocytoma tumor cells. In the test mice were immunized with mastocytoma cells (P815) and after 5 hours compound 7 as a solution was given in a dose of […] per mouse.

Recombinant Interleukin-2: recombinant interleukin-2 was utilized as a control given at 50 U per mouse
% Cytotoxicity (day 5): 21% | % Cytotoxicity (day 9): 20% | cytotoxicity versus control group (p<0.05): higher cytotoxicity activity as compared to the control group

— patent US5041426A, “Immune system enhancing 3-β-d-ribofuranosylthiazolo[4,5-d]pyridimine nucleosides and nucleotides” (priority 1988, dated 1991)
